Drawing on patent EP1157024B1, “ACETYLENIC ORTHO-SULFONAMIDO AND PHOSPHINIC ACID AMIDO BICYCLIC HETEROARYL HYDROXAMIC ACIDS AS TACE INHIBITORS” (American Cyanamid Company, priority 1999, dated 2000), this text covers IC50 for one compound.

In this experiment the target is MMP-13 (Homo sapiens, UniProt P45452). Description: MMP-13 inhibition (thiopeptide or fluorescent peptide substrate). The format is biochemical.

Take `CC#CCOc1ccc(S(=O)(=O)N(C)c2c(C(=O)NO)cnc3c2c(C)nn3C)cc1` [Example 7, 4-[(4-But-2-ynyloxy-benzenesulfonyl)-methyl-amino]-1,3-dimethyl-1H-pyrazolo[3,4-b]pyridine-5-carboxylic acid hydroxyamide]: the midpoint of inhibition, the IC50, lay at 80 nM.
